Results published in publication PMC5629633.

What was measured:
[1] = tested on: NC(=O)CC[C@H](N)C(=O)O; assay: purified protein; conditions: pH 8.0, 30 °C, 11 mM MgCl2, co-substrate ATP
[2] = tested on: Nc1ncnc2c1ncn2[C@@H]1O[C@H](COP(=O)(O)OP(=O)(O)OP(=O)(O)O)[C@@H](O)[C@H]1O; assay: purified protein; conditions: pH 8.0, 30 °C, 11 mM MgCl2, co-substrate L-glutamine

For “Cj1418 (L-glutamine kinase) (Campylobacter jejuni subsp. jejuni NCTC 11168 = ATCC 700819)”, which kcat [1] is on record?
The kcat was 2.5 ± 0.3 s⁻¹.

And the Km [2]?
The Km was 340 ± 70 µM.

What about the kcat [2] of the same substance?
The kcat was 2.5 ± 0.3 s⁻¹.
